Laboratory results from patent US20260207578A1, “COMPOUND BASED ON SULFUR/OXYGEN SUBSTITUTED GLUTARIMIDE-BASED ISOINDOLINONE SKELETON AND USE THEREOF” (Gluetacs Therapeutics (Shanghai) Co., LTD., priority 2022, published 2026).

What was measured:
Test in all cases: Half inhibitory concentration (IC50) against tumor cells, Cell Counting Kit-8
Format in all cases: cell-based
CAL-62 = details: Homo sapiens, CAL-62, 96 h, read-out: inhibitory activity (IC50, nM) against tumor cells proliferation
Description: (§1) The tumor cells used herein were cultured in a cell culture medium listed in table A at 37° C. in an incubator with 5% CO2. Prior to experimentation, all cells used were correctly identified by STR profiling, and tested negative for mycoplasma through routine screenings.
(§2) After the cells were treated with the compounds of the present disclosure for a period of time, the cell viability detection reagent was added to the culture medium for cell viability assessment according to the instructions provided with the CCK-8 kit. […] The growth inhibition of the compounds of the present disclosure on cells was plotted by Prism Graphpad software, and the IC50 values of the compounds of the present disclosure were calculated therefrom.

CCRF-CEM = details: Homo sapiens, 96 h, read-out: inhibitory activity (IC50, nM) against tumor cells proliferation
Description: as §1, §2

Daudi = details: Homo sapiens, 96 h, read-out: inhibitory activity (IC50, nM) against tumor cells proliferation
Description: as §1, §2

JEKO-1 = details: Homo sapiens, JeKo-1, 96 h, read-out: inhibitory activity (IC50, nM) against tumor cells proliferation
Description: as §1, §2

Kasumi-1 = details: Homo sapiens, Kasumi 1, 96 h, read-out: inhibitory activity (IC50, nM) against tumor cells proliferation
Description: as §1, §2

MDA-MB-231 = details: Homo sapiens, MDA-MB-231, 96 h, read-out: inhibitory activity (IC50, nM) against tumor cells proliferation
Description: as §1, §2

MM.1R = details: Homo sapiens, 96 h, read-out: inhibitory activity (IC50, nM) against tumor cells proliferation
Description: as §1, §2

MM.1S = details: Homo sapiens, MM1.S, 96 h, read-out: inhibitory activity (IC50, nM) against tumor cells proliferation
Description: as §1, §2

MV-4-11 = details: Homo sapiens, MV4-11, 96 h, read-out: inhibitory activity (IC50, nM) against tumor cells proliferation
Description: as §1, §2

THP-1 = details: Homo sapiens, THP-1, 96 h, read-out: inhibitory activity (IC50, nM) against tumor cells proliferation
Description: as §1, §2

Measured: IC50

Nc1cccc2c1CN(C1CCC(=O)NC1=O)C2=O (stereo not shown) [lenalidomide, reference compound]
> 10000 nM: all assays above
